AlphaSeq binding of Ab-14 light chain variants to a spike HR2 peptide

Target: peptide PDVDLGDISGINAS, taken from heptad repeat 2 (HR2) of SARS-CoV-2 spike.

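These sequences belong to a second round, designed from the earlier measurements on random variants of the parent. Group labels follow the data file (Ctrl: baseline library sampled from a position-specific scoring matrix, with some repeated check sequences; GP: Gaussian process model; GPLM: also part of the Gaussian process libraries; HC: hill climbing; Gen: genetic algorithm; Gibbs: Gibbs sampling; a sequence that several methods proposed may carry one label only). The assay is AlphaSeq: two haploid yeast populations carry antibody and antigen on their surface. Mating (16 h, 30 °C) was followed by selection of diploids and sequencing of their barcodes. Each replicate has its own calibration line, from reference interactions of the BCL2 family. There are six technical replicates.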

Ab-14 is the parent antibody, in scFv form: VH, then the linker GGGGSGGGGSGGGGS, then VL. The heavy chain is unchanged in all variants.
VH: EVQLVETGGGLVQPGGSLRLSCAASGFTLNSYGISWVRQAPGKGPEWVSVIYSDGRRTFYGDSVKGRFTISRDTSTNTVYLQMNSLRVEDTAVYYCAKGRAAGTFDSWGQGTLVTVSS
VL: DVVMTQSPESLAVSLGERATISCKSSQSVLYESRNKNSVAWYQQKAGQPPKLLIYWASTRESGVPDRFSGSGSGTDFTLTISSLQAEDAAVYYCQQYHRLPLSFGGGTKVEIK

Each variant is given by its three light chain CDRs, as the data file delimits them; those of the parent are KSSQSVLYESRNKNSVA, WASTRES, QQYHRLPLS.
This list holds designs with at most six substitutions.
Values are apparent Kd, the geometric mean of the replicates that gave a signal; lower means stronger binding.
The range of this assay differs from that of the first round, and the authors advise against merging the two.
The authors averaged sequences with at least three values out of six and counted those with two or fewer as poor binders.
Three control strains display no target. For all light chain designs, 4% of the pairings with them gave a signal, with a median of 430 nM and one signal in twenty below 38 nM, so weak values seen in few replicates may be background.
The parent sequence was in this pool as ten entries: three were never detected, three once, and four in most replicates, with averages from 2.2 nM to 240 nM.

- KSSQSVPNESRNKNSVA / WASTRES / QQYHRLPLS [Ctrl]: 50 nM (4 of 6 replicates)
- KSSQSVLYESRRGNSVA / SATERES / QQYHRLPLS [Ctrl]: 4.1 nM (6 of 6 replicates)
- KVSQSYPYESRNKNSVA / NASTRES / QQYHRLPLS [GP_Gen]: 950 pM (6 of 6 replicates)
- KLSQSTLYESRNKNSVA / WASTRLS / QQYHRLPLS [GP_HC]: 6.0 nM (6 of 6 replicates)
- KMSQSVLYESRFKNSVA / WASTRES / QQYHRLPLS [Ctrl]: 4.6 nM (3 of 6 replicates)
- HFSQSVLYESRNKNSVA / NASTRES / QQYHRLPLS [GPLM_HC]: 760 pM (6 of 6 replicates)
- KLQQSEEYESRNKNSVA / EASTRES / QQYHRLPLS [GP_Gen]: 550 pM (6 of 6 replicates)
- KSNTSVLYESRNKNSVA / WKSTRWS / QQYHRLPLS [Ctrl]: 1.2 µM (1 of 6 replicates)
- KSSPVVEYESENKNSVA / NASTRMS / QQYHRLPLS [GP_HC]: 2.7 nM (6 of 6 replicates)
- KLSQSELYESRNKNSVA / NASQRYS / QQYHRLPLS [GP_Gen]: 490 pM (6 of 6 replicates)
- KFSQSVGYESRTKNSVA / NASTRES / QQYHRLPLS [GP_HC]: 2.1 nM (6 of 6 replicates)
- KCSQSVLYESRNKNAVA / DASTRES / QQYHRLPLS [GP_HC]: 230 pM (6 of 6 replicates)
- KSSKSVLFESRNKNSVA / NASTREM / QQYHRLPLS [GP_HC]: 6.1 nM (6 of 6 replicates)
- KFSQSVLYESRTTNSVA / NASTRES / QQYHRLPLS [GP_HC]: 770 pM (6 of 6 replicates)
- KSSQSVMYESRNKNSVA / WASTRES / QQYHRLPLS [Ctrl]: 220 nM (6 of 6 replicates)
- KLQQSWLYESRNKNSVA / NASYRLS / QQYHRLPLS [GP_Gen]: 3.4 nM (6 of 6 replicates)
- KSDQSWLYGSRNKNSVA / NASERES / QQYHRLPLS [GP_Gibbs]: 2.3 nM (6 of 6 replicates)
- KLSQSVPYESRNKNSVA / NASTRLS / QQYHRLPLS [GP_Gen]: 740 pM (6 of 6 replicates)
- KSSESVLYESRNKNSVA / WASTREN / QQYHRLPLS [Ctrl]: 87 nM (3 of 6 replicates)
- KSSQSWLYESRNKNSVA / HASTRED / QQYHRLPLS [GP_HC]: 3.0 nM (6 of 6 replicates)
- FWSQSLLYESRNKNSVA / WASTRES / QQYHRLPFS [Ctrl]: 270 nM (1 of 6 replicates)
- KLSQSNLYESRNKNSVA / NASTRCS / QQYHRLPLS [GP_Gen]: 720 pM (6 of 6 replicates)
- KVSQSELYESRNKNSVA / NASTRLS / QQYHRLPLS [GP_Gen]: 890 pM (6 of 6 replicates)
- KLDQSVLYESRNKNSVA / NASTRFS / QQYHRLPLS [GP_Gen]: 540 pM (6 of 6 replicates)
- KQSQSVLYESRNKNSVA / GASTRES / QQYHRLPLD [GP_HC]: 45 nM (6 of 6 replicates)
- KSSISYLYEKRNKNSVA / EASTRES / QQYHRLPLS [GP_HC]: 4.7 nM (6 of 6 replicates)
- KLSQSMLYESRNKNSVA / NASTREK / QQYHRLPLS [GP_Gen]: 530 pM (6 of 6 replicates)
- KISQSVLYESRNKNSVA / DASTRES / QQYHRLPLS [GP_Gen]: 800 pM (6 of 6 replicates)
- KSLQSWLYESRNKNSVA / GASTREQ / QQYHRLPLS [GP_HC]: 1.6 nM (6 of 6 replicates)
- KVSQSWLYESRNKNSVA / NASTRED / QQYHRLPLS [GP_Gen]: 380 pM (6 of 6 replicates)
- KVSQSVLYERRNKNSVA / SASTRES / QQYHRLPLS [Ctrl]: 11 nM (6 of 6 replicates)

4 of these entries, quoted again:

CDR-L1,CDR-L2,CDR-L3,group,apparent Kd,seen in
KSSKSVLFESRNKNSVA,NASTREM,QQYHRLPLS,GP_HC,6.1 nM,6 of 6
KSLQSWLYESRNKNSVA,GASTREQ,QQYHRLPLS,GP_HC,1.6 nM,6 of 6
KVSQSWLYESRNKNSVA,NASTRED,QQYHRLPLS,GP_Gen,380 pM,6 of 6
KLSQSMLYESRNKNSVA,NASTREK,QQYHRLPLS,GP_Gen,530 pM,6 of 6

Source: Li et al. 2023 (doi:10.1038/s41467-023-39022-2), MIT Lincoln Laboratory and A-Alpha Bio; data file from the FLAb repository.